Laboratory results reported in PMC9049830 (RSC Advances, 2020).

Assay: Solubility
Format: physicochemical

Substance: L-valine isopropyl ester ibuprofenate [[ValOiPr][IBU]]
- Solubility in water (deionised water, 25 °C): 3.468 ± 0.007 g dm^−3
- Solubility in phosphate buffer pH = 5.4 (pH 5.4, 25 °C): 2.350 ± 0.027 g dm^−3
- Solubility in phosphate buffer pH = 7.4 (pH 7.4, 25 °C): 4.998 ± 0.018 g dm^−3
